Results from patent publication EP1076558B1, “2-PHENYL-1-[-(2-AMINOETHOXY)-BENZYL -INDOLE IN COMBINATION WITH ESTROGENS” (Wyeth, priority 1998, dated 1999).

Sequences of proteins named here, by UniProt entry; tags and fusion partners are left off.
UniProt P03372, whole entry: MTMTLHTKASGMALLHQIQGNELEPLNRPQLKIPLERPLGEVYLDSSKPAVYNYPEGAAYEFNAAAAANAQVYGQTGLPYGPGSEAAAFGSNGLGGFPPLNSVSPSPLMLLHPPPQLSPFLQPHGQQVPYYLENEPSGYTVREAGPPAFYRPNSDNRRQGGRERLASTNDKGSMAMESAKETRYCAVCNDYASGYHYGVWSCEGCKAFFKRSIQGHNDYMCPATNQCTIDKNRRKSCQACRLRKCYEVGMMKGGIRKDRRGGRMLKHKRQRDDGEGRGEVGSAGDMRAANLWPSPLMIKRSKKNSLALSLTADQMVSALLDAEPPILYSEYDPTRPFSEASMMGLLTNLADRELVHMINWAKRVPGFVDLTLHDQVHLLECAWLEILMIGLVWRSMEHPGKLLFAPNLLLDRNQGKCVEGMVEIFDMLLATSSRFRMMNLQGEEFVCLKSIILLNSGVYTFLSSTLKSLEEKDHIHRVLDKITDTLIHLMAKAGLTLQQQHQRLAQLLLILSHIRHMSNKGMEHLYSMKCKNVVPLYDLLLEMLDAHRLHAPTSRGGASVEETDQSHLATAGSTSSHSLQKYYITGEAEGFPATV

Target: estrogen receptor (Homo sapiens, UniProt P03372)
Experiment: In vitro estrogen receptor binding assay

| Structure (SMILES) | IC50 [nM] |
| --- | --- |
| Cc1c(-c2ccc(O)cc2)n(Cc2ccc(OCCN(C)C)cc2)c2ccc(O)cc12 [Example No. 100, 2-(4-Hydroxy-phenyl)-3-methyl-1-[4-(2-dimethyl-1-yl-ethoxy)-benzyl]-1H-indol-5-ol] | 60 |
| COc1ccc(-c2c(C)c3cc(OC)ccc3n2Cc2ccc(OCCN3CCCCCC3)cc2)cc1 [Example No. 91, 1-[4-(2-Azepan-1-yl-ethoxy)-benzyl]-5-methoxy-2-(4-methoxy-phenyl)-3-methyl-1H-indole] | 520 |
